The target of the experiment is T1, MAO-A (Homo sapiens, UniProt P21397).
T1 construct: purchased Sigma-Aldrich
Nature of the experiment: continuous spectrophotometric MAO-A inhibition assay. The experiment is classed as biochemical. Particulars: 100 μM. The protocol:
Both monoamine oxidase A (MAO-A) and B (MAO-B) protein and the reagents for the chromogenic solution of vanillic acid (4-hydroxy-3-methoxylbenzoic acid, 97% purity), 4-aminoantipyrine (reagent grade), horseradish peroxidase and the substrate tyramine hydrochloride (minimum 99% purity) as well as the potassium phosphate buffer, which was prepared using potassium phosphate dibasic trihydrate (≥99% ReagentPlus™) and potassium phosphate monobasic (minimum 98% purity, molecular biology tested), were purchased from Sigma-Aldrich (St. Louis, MO, USA) for the spectrophotometric assay.
The protocol for continuous spectrophotometric assay (Holt et al., [1997]) was followed in the activity measurements. […] The background signal was measured using multilabel reader (Victor^TM X4, 2030 Multilabel Reader, PerkinElmer, Waltham, MA, USA) at A490 before reaching the total 200 μl volume by adding 20 μl of tyramine to final concentration of 0.5 mM on the plate. […] After adding the substrate, the plates were measured 300 times every 15 s using 1 s exposure time. […]
Based on the activity measurement, suitable concentrations were chosen for both MAO-B and MAO-A to be used in the inhibition studies (Supplementary Figures S1, S2, and S5, Table 1, Supplementary Table S1). The experiment conditions should produce absorbance change of ~0.35 (Holt et al., [1997]). […]

Chains of the proteins cited; added tags and fusions are not shown.
UniProt P21397, whole entry: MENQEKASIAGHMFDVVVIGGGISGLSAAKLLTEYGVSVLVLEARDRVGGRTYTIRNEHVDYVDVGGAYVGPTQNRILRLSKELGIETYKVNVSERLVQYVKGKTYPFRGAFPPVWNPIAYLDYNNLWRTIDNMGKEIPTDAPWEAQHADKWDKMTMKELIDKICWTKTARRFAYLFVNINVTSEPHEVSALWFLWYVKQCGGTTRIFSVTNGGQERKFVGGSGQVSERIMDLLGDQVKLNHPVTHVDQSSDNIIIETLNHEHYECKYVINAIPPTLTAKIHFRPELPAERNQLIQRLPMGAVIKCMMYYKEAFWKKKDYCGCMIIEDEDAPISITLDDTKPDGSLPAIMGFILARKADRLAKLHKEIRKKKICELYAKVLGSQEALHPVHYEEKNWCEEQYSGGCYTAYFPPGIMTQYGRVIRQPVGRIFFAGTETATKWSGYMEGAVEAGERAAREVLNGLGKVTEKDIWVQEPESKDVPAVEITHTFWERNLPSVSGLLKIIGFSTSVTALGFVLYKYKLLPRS

Each structure is given as a SMILES string.

Take `C#CCN(C)CCCOc1ccc(Cl)cc1Cl` [clorgyline, reference compound]: the MAO-A inhibition % is listed as 100.89^(2) %.

The values are drawn from article PMC5840146, “Structure-Activity Relationship Analysis of 3-Phenylcoumarin-Based Monoamine Oxidase B Inhibitors” (Frontiers in Chemistry, 2018).
